Assay results published in patent publication US5212286A, “Atrial Natriuretic/vasodilator peptide compounds” (Scios Nova Inc., priority 1986, dated 1993).

Experiments:
isolated rat kidney = assay: Renal function in the isolated perfused rat kidney; details: dose 1 μg; experimental period E; mean of 3-8 experiments
[1] = test system: precontracted rabbit or rat aortic preparations; details: for IC50: thoracic aortic segments precontracted with histamine or norepinephrine, read-out: IC50 (concentration producing half-maximal relaxation of the precontracted tissue); for vasorelaxant potency in words: precontracted vascular preparations
Experimental: Synthetic ANVP compounds were compared to partially purified (gel filtration step) and purified (HPLC) native ANVP compounds (See FIGS. 3A-D) for their ability to relax histamine-contracted aortic rings. Rings were suspended in 10 ml aerated Kreb's buffer under 1.5 gm passive tension. Rings were precontracted with 5 X 10^-6 M histamine, washed and allowed to return to baseline tension, as described ([…]., supra). Increasing amounts of purified or synthetic ANVP compounds were then added in cumulative fashion. […] The relaxation effects of various ANVP compounds on precontracted rabbit or rat aortic preparations are shown in Table III. | Thoracic aortic segments were precontracted with histamine or | norepinephrine as previously described. Various doses of ANVP compounds | were then added and relaxation of the precontracted state was monitored. | Data are expressed as the concentration of each peptide required to | produce a halfmaximal relaxation of the precontracted tissue (IC50).

[2] = test system: ANVP receptor sites on cultured bovine vascular smooth muscle cells; assay: Displacement of specific [125I]rANVP(126-150) binding on cultured smooth muscle cells; details: concentration of half-maximal displacement
From the text: Specific and saturable binding is a necessary component of a hormone/receptor interaction.
Various concentrations of the peptides described were examined for […]

intact rats = assay: Natriuretic and diuretic effects in intact rats (bolus injection); assay type: in vivo, rat; details: dose 3670 pmol/kg
Experimental: Synthetic ANVP compounds […] hANVP(127-151) were also found to be natriuretic in the intact rat. These compounds were administered as a bolus injection to Inactin anesthetized rats (100 mg/kg, average weight 399 g) which were maintained on a constant infusion of normal saline at 2.2 ml/hr. […] Data are expressed as mean±SE.

SMILES	.V (urine flow rate) (isolated rat kidney)	GFR (isolated rat kidney)	UNa.V (urinary sodium excretion rate) (isolated rat kidney)	IC50 [1]	other results
CC[C@H](C)[C@@H]1NC(=O)[C@H](CCCNC(=N)N)NC(=O)[C@H](CC(=O)O)NC(=O)[C@H]([C@@H](C)CC)NC(=O)[C@H](CCCNC(=N)N)NC(=O)CNC(=O)CNC(=O)[C@H](Cc2ccccc2)NC(=O)[C@@H](NC(=O)[C@H](CO)NC(=O)[C@H](CO)NC(=O)[C@@H](N)CCCNC(=N)N)CSSC[C@@H](C(=O)N[C@@H](CC(N)=O)C(=O)N[C@@H](CO)C(=O)N[C@@H](Cc2ccccc2)C(=O)N[C@@H](CCCNC(=N)N)C(=O)N[C@@H](Cc2ccc(O)cc2)C(=O)O)NC(=O)CNC(=O)[C@H](CC(C)C)NC(=O)CNC(=O)[C@H](CO)NC(=O)[C@H](CCC(N)=O)NC(=O)[C@@H](C)NC(=O)CNC1=O [[D-Ala^139]rANVP(126-150), H-Arg-Ser-Ser-Cys-Phe-Gly-Gly-Arg-Met-Asp-Arg-Ile-Gly[D-Ala]-Gln-Ser-Gly-Leu-Gly-Cys-Asn-Ser-Phe-Arg-Tyr-OH]	112.5 µL/min	0.59 mL/min	8.14 μEq/min	2.7 nM	–
CC[C@H](C)[C@@H]1NC(=O)[C@H](CCCNC(=N)N)NC(=O)[C@H](CC(=O)O)NC(=O)[C@H]([C@@H](C)CC)NC(=O)[C@@H](CCCNC(=N)N)NC(=O)CNC(=O)CNC(=O)[C@H](Cc2ccccc2)NC(=O)[C@@H](NC(=O)[C@H](CO)NC(=O)[C@H](CO)NC(=O)[C@@H](N)CCCNC(=N)N)CSSC[C@@H](C(=O)N[C@@H](CC(N)=O)C(=O)N[C@@H](CO)C(=O)N[C@@H](Cc2ccccc2)C(=O)N[C@@H](CCCNC(=N)N)C(=O)N[C@@H](Cc2ccc(O)cc2)C(=O)O)NC(=O)CNC(=O)[C@H](CC(C)C)NC(=O)CNC(=O)[C@H](CO)NC(=O)[C@H](CCC(N)=O)NC(=O)[C@H](C)NC(=O)CNC1=O [[D-Arg^133]rANVP(126-150), H-Arg-Ser-Ser-Cys-Phe-Gly-[D-Ala]-Ile-Asp-Arg-Ile-Gly-Ala-Gln-Ser-Gly-Leu-Gly-Cys-Asn-Ser-Phe-Arg-Tyr-OH]	–	–	–	13 nM	Ki ([2]; Series B smooth muscle cells): 4.65 nM
CC[C@H](C)[C@@H]1NC(=O)[C@H](CCCNC(=N)N)NC(=O)CNC(=O)CNC(=O)[C@H](Cc2ccccc2)NC(=O)[C@@H](NC(=O)[C@H](CO)NC(=O)[C@H](CO)NC(=O)[C@@H](N)CCCNC(=N)N)CSSC[C@@H](C(=O)N[C@@H](CC(N)=O)C(=O)N[C@@H](CO)C(=O)N[C@@H](Cc2ccccc2)C(=O)N[C@@H](CCCNC(=N)N)C(=O)N[C@@H](Cc2ccc(O)cc2)C(=O)O)NC(=O)CNC(=O)[C@H](CC(C)C)NC(=O)CNC(=O)[C@H](CO)NC(=O)[C@H](CCC(N)=O)NC(=O)[C@H](C)NC(=O)CNC(=O)[C@H]([C@@H](C)CC)NC(=O)[C@@H](CCCNC(=N)N)NC(=O)[C@H](CC(=O)O)NC1=O [[D-Arg^136]rANVP(126-150), H-Arg-Ser-Ser-Cys-Phe-Gly-Arg-Met-Asp[D-Arg]-Ile-Gly-Ala-Gln-Ser-Gly-Leu-Gly-Cys-Asn-Ser-Phe-Arg-Tyr-OH]	–	–	–	0.64 nM	vasorelaxant potency in words [1]: most potent
CC[C@H](C)[C@@H]1NC(=O)[C@H](CCCNC(=N)N)NC(=O)[C@H](CC(=O)O)NC(=O)[C@H]([C@@H](C)CC)NC(=O)[C@H](CCCNC(=N)N)NC(=O)CNC(=O)CNC(=O)[C@H](Cc2ccccc2)NC(=O)[C@@H](NC(=O)[C@H](CO)NC(=O)[C@H](CO)NC(=O)[C@@H](N)CCCNC(=N)N)CSSC[C@@H](C(=O)N[C@H](CC(N)=O)C(=O)N[C@@H](CO)C(=O)N[C@@H](Cc2ccccc2)C(=O)N[C@@H](CCCNC(=N)N)C(=O)N[C@@H](Cc2ccc(O)cc2)C(=O)O)NC(=O)CNC(=O)[C@H](CC(C)C)NC(=O)CNC(=O)[C@H](CO)NC(=O)[C@H](CCC(N)=O)NC(=O)[C@H](C)NC(=O)CNC1=O [[D-Asn^146]rANVP(126-150), H-Arg-Ser-Ser-Cys-Phe-Gly-Gly-Arg-Ile-Asp-Arg-Ile-Gly-Ala-gln-Ser-Gly-Leu-Gly-Cys-[D-Asn]-Ser-Phe-Arg-Tyr-OH]	–	–	–	4.4 nM	Peak Na+ Excr. (intact rats): 1.3 ± 0.5 µmol/min; Peak Urine Vol. (intact rats): 12.2 ± 1.2 µL/min
CC[C@H](C)[C@@H]1NC(=O)[C@H](CCCNC(=N)N)NC(=O)[C@H](CC(=O)O)NC(=O)[C@H]([C@@H](C)CC)NC(=O)[C@H](CCCNC(=N)N)NC(=O)CNC(=O)CNC(=O)[C@H](Cc2ccccc2)NC(=O)[C@H](NC(=O)[C@H](CO)NC(=O)[C@H](CO)NC(=O)[C@@H](N)CCCNC(=N)N)CSSC[C@@H](C(=O)N[C@@H](CC(N)=O)C(=O)N[C@@H](CO)C(=O)N[C@@H](Cc2ccccc2)C(=O)N[C@@H](CCCNC(=N)N)C(=O)N[C@@H](Cc2ccc(O)cc2)C(=O)O)NC(=O)CNC(=O)[C@H](CC(C)C)NC(=O)CNC(=O)[C@H](CO)NC(=O)[C@H](CCC(N)=O)NC(=O)[C@H](C)NC(=O)CNC1=O [[D-Cys^129]rANVP(126-150)]	–	–	–	6.1 nM	–
CC[C@H](C)[C@@H]1NC(=O)[C@H](CCCNC(=N)N)NC(=O)[C@H](CC(=O)O)NC(=O)[C@H]([C@@H](C)CC)NC(=O)[C@H](CCCNC(=N)N)NC(=O)CNC(=O)CNC(=O)[C@H](Cc2ccccc2)NC(=O)[C@@H](NC(=O)[C@H](CO)NC(=O)[C@H](CO)NC(=O)[C@@H](N)CCCNC(=N)N)CSSC[C@H](C(=O)N[C@@H](CC(N)=O)C(=O)N[C@@H](CO)C(=O)N[C@@H](Cc2ccccc2)C(=O)N[C@@H](CCCNC(=N)N)C(=O)N[C@@H](Cc2ccc(O)cc2)C(=O)O)NC(=O)CNC(=O)[C@H](CC(C)C)NC(=O)CNC(=O)[C@H](CO)NC(=O)[C@H](CCC(N)=O)NC(=O)[C@H](C)NC(=O)CNC1=O [[D-Cys^145]rANVP(126-150), H-Arg-Ser-Ser-Cys-Phe-Gly-Gly-Arg-Ile-Asp-Arg-Ile-Gly-Ala-Gln-Ser-Gly-Leu-Gly-[D-Cys]-Asn-Ser-Phe-Arg-Tyr-OH]	–	–	–	24 nM	Peak Na+ Excr. (intact rats): 1.8 ± 0.4 µmol/min; Peak Urine Vol. (intact rats): 27.3 ± 6 µL/min
CC[C@H](C)[C@@H]1NC(=O)[C@H](CCCNC(=N)N)NC(=O)[C@H](CC(=O)O)NC(=O)[C@H]([C@@H](C)CC)NC(=O)[C@H](CCCNC(=N)N)NC(=O)CNC(=O)CNC(=O)[C@H](Cc2ccccc2)NC(=O)[C@@H](NC(=O)[C@H](CO)NC(=O)[C@H](CO)NC(=O)[C@@H](N)CCCNC(=N)N)CSSC[C@@H](C(=O)N[C@@H](CC(N)=O)C(=O)N[C@@H](CO)C(=O)N[C@@H](Cc2ccccc2)C(=O)N[C@@H](CCCNC(=N)N)C(=O)N[C@@H](Cc2ccc(O)cc2)C(=O)O)NC(=O)CNC(=O)[C@H](CC(C)C)NC(=O)CNC(=O)[C@H](CO)NC(=O)[C@@H](CCC(N)=O)NC(=O)[C@H](C)NC(=O)CNC1=O [[D-Gln^140]rANVP(126-150), H-Arg-Ser-Ser-Cys-Phe-Gly-Gly-Arg-Ile-Gly-Ala-[D-Gln]-Ser-Gly-Leu-Gly-Cys-Asn-Ser-Phe-Arg-tyr-OH]	183.4 µL/min	1.01 mL/min	14.52 μEq/min	1.25 nM	Ki ([2]; Series A smooth muscle cells): 20 nM; vasorelaxant potency in words [1]: most potent
CC[C@H](C)[C@@H]1NC(=O)[C@H](CCCNC(=N)N)NC(=O)[C@H](CC(=O)O)NC(=O)[C@H]([C@@H](C)CC)NC(=O)[C@H](CCCNC(=N)N)NC(=O)CNC(=O)CNC(=O)[C@H](Cc2ccccc2)NC(=O)[C@@H](NC(=O)[C@H](CO)NC(=O)[C@H](CO)NC(=O)[C@@H](N)CCCNC(=N)N)CSSC[C@@H](C(=O)N[C@@H](CC(N)=O)C(=O)N[C@@H](CO)C(=O)N[C@@H](Cc2ccccc2)C(=O)N[C@@H](CCCNC(=N)N)C(=O)N[C@@H](Cc2ccc(O)cc2)C(=O)O)NC(=O)CNC(=O)[C@@H](CC(C)C)NC(=O)CNC(=O)[C@H](CO)NC(=O)[C@H](CCC(N)=O)NC(=O)[C@H](C)NC(=O)CNC1=O [[D-Leu^143]rANVP(126-150), H-Arg-Ser-Ser-Cys-Phe-Gly-Gly-Arg-Met-Asp-Arg-Ile-Gly-Ala-Gln-Ser-Gly-[D-Leu]-Gly-Cys-Asn-Ser-Phe-Arg-Tyr-OH]	103.0 µL/min	0.53 mL/min	3.52 μEq/min	3.6 nM	–
CC[C@H](C)[C@@H]1NC(=O)[C@H](CCCNC(=N)N)NC(=O)[C@H](CC(=O)O)NC(=O)[C@H]([C@@H](C)CC)NC(=O)[C@H](CCCNC(=N)N)NC(=O)CNC(=O)CNC(=O)[C@H](Cc2ccccc2)NC(=O)[C@@H](NC(=O)[C@H](CO)NC(=O)[C@H](CO)NC(=O)[C@@H](N)CCCNC(=N)N)CSSC[C@@H](C(=O)N[C@@H](CC(N)=O)C(=O)N[C@@H](CO)C(=O)N[C@@H](Cc2ccccc2)C(=O)N[C@@H](CCCNC(=N)N)C(=O)N[C@@H](Cc2ccc(O)cc2)C(=O)O)NC(=O)CNC(=O)[C@H](CC(C)C)NC(=O)CNC(=O)[C@H](CO)NC(=O)[C@H](CCC(N)=O)NC(=O)[C@H](C)NC(=O)CNC1=O [rANVP(126-150)]	–	–	–	–	EC50 ([1]; read-out: EC50 for relaxing vascular smooth muscle (FIG. 12a)): ~3 nM
